pIC50: −log10 of the molar value. Converted amounts (≈) assume the structure as drawn.
Target: T1, M3 receptor (carbachol-induced detrusor contraction) (Rattus norvegicus, UniProt P08483)
T1 construct: the whole bladder was immediately isolated to prepare detrusor strips in Krebs’ solution; from tissue; host or cells: bladder detrusor strips / bladder sections of SHR
Assay: Carbachol-induced bladder strip (detrusor) contraction, ex vivo organ bath
Format: cell-based, spontaneously hypertensive rats (SHRs)
Protocol: SHRs were sacrificed with carbon dioxide, and the whole bladder was immediately isolated to prepare detrusor strips in Krebs’ solution. Then, the strips were placed in a PanLab organ bath (Harvard Apparatus, Holliston, Massachusetts, United States) full of bubbling Krebs’ solution at 37°C. After stimulation with high-potassium solution, the strips were washed with Krebs’ solution three times. When the strips were incubated in Krebs’ solution until the tension was set at about 1.5 g, 0.1% DMSO was added for a 10-min incubation as a control, and then the muscle strip was stimulated to shrink by adding muscarinic agonist carbachol (10 μM), which is used for determinization of M3 receptor function in the bladder strip ([Liang and Leung, 2012]). Between two stimulations, the strips were washed out and balanced for 15 min. The contraction force of the bladder strip was recorded. After the experiment, detrusor strips were collected, dried, and weighed for data normalization. Data were recorded and analyzed using LabChart software (version 8.0).
Detrusor strips were isolated from SHRs and placed in the organ bath as mentioned previously, and then inhibitory activities of different fractions at 100 μg/ml were tested under carbachol (10 μM)-stimulated detrusor contraction.

Sequences of proteins named here, by UniProt entry; tags and fusion partners are left off.
UniProt P08483, whole entry: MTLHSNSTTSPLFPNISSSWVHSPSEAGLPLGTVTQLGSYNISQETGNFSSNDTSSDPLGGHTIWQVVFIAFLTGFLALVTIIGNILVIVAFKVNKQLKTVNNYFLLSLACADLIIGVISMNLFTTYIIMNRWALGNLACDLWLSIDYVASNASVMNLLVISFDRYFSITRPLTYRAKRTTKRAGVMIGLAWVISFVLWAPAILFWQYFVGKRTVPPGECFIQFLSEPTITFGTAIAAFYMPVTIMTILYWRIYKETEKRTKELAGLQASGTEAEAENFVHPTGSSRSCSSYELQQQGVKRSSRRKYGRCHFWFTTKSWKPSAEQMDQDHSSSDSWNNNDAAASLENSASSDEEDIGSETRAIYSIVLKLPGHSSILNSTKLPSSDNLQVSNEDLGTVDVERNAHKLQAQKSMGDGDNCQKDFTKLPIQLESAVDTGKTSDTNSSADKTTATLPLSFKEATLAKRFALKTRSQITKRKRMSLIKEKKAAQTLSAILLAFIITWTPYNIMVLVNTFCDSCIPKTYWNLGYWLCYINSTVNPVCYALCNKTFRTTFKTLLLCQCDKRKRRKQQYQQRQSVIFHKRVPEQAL

O=c1c(-c2ccc(O)cc2)coc2cc(O)cc(O)c12 [Genistein, Genistein (5-hydroxyl daidzein)]
pIC50: 4.16
IC10 value (carbachol (10 μM)-induced detrusor contraction, Mean ± SEM, n = 3): 5.05 ± 0.58 µg/mL (≈ 18.7 µM)

Reference: article PMC9576955, “Daidzein is the in vivo active compound of Puerariae Lobatae Radix water extract for muscarinic receptor-3 inhibition against overactive bladder” (Frontiers in Pharmacology, 2022)
